Results from patent publication US10894885B2, “Crosslinkable composition and method for producing a coated article” (HWK KRONBICHLER GMBH, priority 2016, dated 2021).
Like-named read-outs stand apart in the source and are kept apart here.

[1] = solvent 3M Novec 7500 + 4 wt % propane-2-ole

Substance | Solubility (solvent 3M Novec 71 IPA) | Solubility [1]
3-(1H,1H,2H,2H Perfluorooctyl)-1-vinyl-1H-imidazoliumiodide | 8 mg/mL | 6 mg/mL
3-(1H,1H,2H,2H-perfluorooctyl)-1-vinyl-1H-imidazoliumiodide cocrystal having 1-iodoperfluorooctane | 500 mg/mL | 53 mg/mL
